# How the values were obtained:
# [1] = Scintiscan (Anger camera) monitoring of distribution of radioactivity after intravenous administration, rabbit; assay type: in vivo, New Zealand rabbit; design: key: -: no significant measured radioactivity; relative amounts of measured radioactivity ranging from (-) for no significant measured radioactivity to (+++) for the maximum measured radioactivity; relative amounts of measured radioactivity ranging from (-) for no significant measured radioactivity to (+++) for the maximum measured radioactivity; +++: the maximum measured radioactivity; settings: i.v., 0.95 mg, 0.5 mCi
# Method: Approximately 0.2 milliliter of a solution of the complex formed from technetium-99m and 0.95 milligram of fructose 1,6-diphosphate and prepared generally as described in Example 1 and having a radioactivity of 0.5 millicurie was administered intravenously to an anesthetized New Zealand rabbit weighing about 3 kilograms. Approximately the same volume of a solution of the complex formed from technetium-99m and 1.21 milligrams of fructose 6-phosphate prepared generally as described in Example 2, having a radioactivity of 0.81 millicurie was similarly administered to a second New Zealand rabbit of about the same weight. The injections were made using a 1 milliliter tuberculin syringe connected to a #23 gauge indwelling cannula inserted into a marginal ear vein. Each rabbit was positioned in a full ventral position for 2.5 to 3 hours during which time the disposition of the radioactivity in the rabbit in this position was monitored using a computer-augmented Anger camera. The measurements and results are discussed hereinafter, and the results of the test using the fructose 1,6-diphosphate and fructose 6-phosphate complexes are presented in Tables 1 and 2, respectively.
# (§1) At various times after the aforesaid administrations of solutions of complexes of this invention, which times are indicated in Tables 1-6, scintiscan photographs and video tape recordings were taken of the aforesaid rabbit, beagles and monkeys using the Anger camera. This instrument was a Pho-Gamma LFOV Scintillation Camera System, Model 6413, fitted with a Model 3137 Vari-Back Camera, a Model 3122 Data-Store/Playback System and a Model 27851 Analog-Digital/Digital-AnalogConverter (all Searle Radiographics, Inc.). This entire system was interfaced with a Xerox 530 computer (Xerox Corp., Minneapolis, Minn.) which was programmed to record net counts per unit of time and percents of total counts in individual organs and to plot organ radioactivity versus time. The camera was operated with a 140 KeV high resolution Type II converging collimator using a 20 percent technetium-99m window. Generally 400,000 counts were accumulated on each scintiscan using both video tape and self-developing film, with the animal in the full ventral position. The photographs represented a visualization of the anatomic relationships in the kidneys.
# (§2) Tables 1-6 contain semi-quantitative representations of the distribution of radioactivity in the organs of the test animals determined from the scintiscans. In Tables 1-6, (--), (+), (++) and (+++) indicate relative amounts of measured radioactivity ranging from (-) for no significant measured radioactivity to (+++) for the maximum measured radioactivity.
# [2] = Plasma clearance after intravenous injection, dogs (gamma spectrometer); assay type: in vivo, dog (male mongrel and female beagle); settings: i.v.
# Method: Each of one male mongrel and three female beagle dogs was given at least one intravenous injection of a solution of the complex of technetium-99m and fructose 1,6-diphosphate or a solution of the complex of technetium-99m and fructose 6-phosphate. In each case about 0.5-2 milliliters of a solution of the complex having radioactivity of about 1-4 mCi and formed from 0.5-10 milligrams of complexing agent were administered. Four injections of solutions of the complex of technetium-99m and fructose 6-phosphate and 2 injections of solutions of the complex of technetium-99m and fructose 1,6-diphosphate were made. The dogs ranged in weight from 6 to 15 kilograms. Periodically blood samples were removed from the jugular vein of the dogs and collected in vacuum tubes containing the disodium salt of ethylenediamine tetracetic acid and the radioactivity of one milliliter samples of plasma were measured in a gamma spectrometer.
# The gamma spectrometer employed was a Model 1185 Gamma Scintillation Spectrometer (Searle Analytic Inc., Des Plaines, Ill.). One milliliter samples of plasma or whole blood were analyzed for technetium-99m, and samples were counted for 1 minute. As determined by the computer, the curve in FIG. 2 and the five other corresponding curves (not shown) from the other tests with the dogs were the best fitting curves passing through the plots of experimentally measured radioactivities.
# [3] = Scintiscan (Anger camera) monitoring of distribution of radioactivity after intravenous administration, female beagle dog; assay type: in vivo; design: key: -: no significant measured radioactivity; relative amounts of measured radioactivity ranging from (-) for no significant measured radioactivity to (+++) for the maximum measured radioactivity; relative amounts of measured radioactivity ranging from (-) for no significant measured radioactivity to (+++) for the maximum measured radioactivity; +++: the maximum measured radioactivity; settings: i.v., 9.4 mg, 0.5 mCi
# Method: (§3) This procedure used with the rabbits was repeated with additional anesthetized animals: two female beagle dogs and two female rhesus monkeys. In these cases, however, unlike the cases of the rabbits, the complex solutions, again prepared generally as described in Examples 1 and 2, were injected intravenously in a saphenous vein of the dogs and monkeys.
# Three milliliters of a solution of the complex formed from technetium-99m and 9.4 milligrams of fructose 1,6-diphosphate and having a radioactivity of 0.5 mCi were administered to one such dog weighing 11.7 kilograms. In addition, 1.6 milliliters of a solution of the complex formed from technetium-99m and 7.3 milligrams of fructose 6-phosphate having a radioactivity of 0.84 mCi were administered to a second such dog weighing 10.5 kilograms.
# as §1, §2
# [4] = Scintiscan (Anger camera) monitoring of distribution of radioactivity after intravenous administration, rhesus monkey; assay type: in vivo; design: key: -: no significant measured radioactivity; relative amounts of measured radioactivity ranging from (-) for no significant measured radioactivity to (+++) for the maximum measured radioactivity; relative amounts of measured radioactivity ranging from (-) for no significant measured radioactivity to (+++) for the maximum measured radioactivity; +++: the maximum measured radioactivity; settings: i.v., 1.1 mg, 1.2 mCi
# Method: as §3
# Similarly 0.3 milliliter of a solution of the complex formed from technetium-99m and 1.1 milligrams of fructose 1,6-diphosphate having a radioactivity of 1.2 mCi were administered to one such monkey weighing 5.1 kilograms. Also 1.5 milliliters of a solution of the complex formed from technetium-99m and 7.6 milligrams of fructose 6-phosphate having a radioactivity of 0.79 mCi were administered to a second such monkey weighing 6.7 kilograms.
# as §1, §2
substance,measurement,setting,value
"complex of technetium-99m and fructose 1,6-diphosphate",Relative distribution of complex: Kidneys,[1]; 1 min,+
same,Relative distribution of complex: Urinary Bladder,[1]; 1 min,+
same,Relative distribution of complex: Vascular,[1]; 1 min,++
same,Relative distribution of complex: Kidneys,[1]; 3 min,+
same,Relative distribution of complex: Urinary Bladder,[1]; 3 min,+
same,Relative distribution of complex: Vascular,[1]; 3 min,++
same,Relative distribution of complex: Kidneys,[1]; 30 min,++
same,Relative distribution of complex: Urinary Bladder,[1]; 30 min,++
same,Relative distribution of complex: Vascular,[1]; 30 min,+
same,Relative distribution of complex: Kidneys,[1]; 60 min,++
same,Relative distribution of complex: Urinary Bladder,[1]; 60 min,+++
same,Relative distribution of complex: Vascular,[1]; 60 min,-
same,Relative distribution of complex: Kidneys,[1]; 180 min,+
same,Relative distribution of complex: Urinary Bladder,[1]; 180 min,+++
same,Relative distribution of complex: Vascular,[1]; 180 min,-
same,"half time, distributive phase of plasma clearance curve","[2]; dog, single curve of FIG. 2",0.0565 h
same,"half time, elimination phase of plasma clearance curve","[2]; dog, single curve of FIG. 2",0.947 h
same,"average half time, distributive phase","[2]; dogs, two tests, standard deviation 0.009 hour",0.063 h
same,"average half time, elimination phase","[2]; dogs, two tests, standard deviation 0.23 hour",1.34 h
same,Relative distribution of complex: Kidneys,[3]; 5 min,++
same,Relative distribution of complex: Urinary Bladder,[3]; 5 min,+
same,Relative distribution of complex: Vascular,[3]; 5 min,+
same,Relative distribution of complex: Kidneys,[3]; 13 min,+
same,Relative distribution of complex: Urinary Bladder,[3]; 13 min,++
same,Relative distribution of complex: Vascular,[3]; 13 min,+
same,Relative distribution of complex: Kidneys,[3]; 40 min,+
same,Relative distribution of complex: Urinary Bladder,[3]; 40 min,+++
same,Relative distribution of complex: Vascular,[3]; 40 min,-
same,Relative distribution of complex: Kidneys,[3]; 60 min,+
same,Relative distribution of complex: Urinary Bladder,[3]; 60 min,+++
same,Relative distribution of complex: Vascular,[3]; 60 min,-
same,Relative distribution of complex: Kidneys,[4]; 6 min,++
same,Relative distribution of complex: Urinary Bladder,[4]; 6 min,++
same,Relative distribution of complex: Vascular,[4]; 6 min,++
same,Relative distribution of complex: Kidneys,[4]; 16 min,++
same,Relative distribution of complex: Urinary Bladder,[4]; 16 min,++
same,Relative distribution of complex: Vascular,[4]; 16 min,+
same,Relative distribution of complex: Kidneys,[4]; 27 min,++
same,Relative distribution of complex: Urinary Bladder,[4]; 27 min,++
same,Relative distribution of complex: Vascular,[4]; 27 min,+
same,Relative distribution of complex: Kidneys,[4]; 36 min,++
same,Relative distribution of complex: Urinary Bladder,[4]; 36 min,+++
same,Relative distribution of complex: Vascular,[4]; 36 min,+
same,Relative distribution of complex: Kidneys,[4]; 46 min,++
same,Relative distribution of complex: Urinary Bladder,[4]; 46 min,+++
same,Relative distribution of complex: Vascular,[4]; 46 min,-
same,Relative distribution of complex: Kidneys,[4]; 56 min,+
same,Relative distribution of complex: Urinary Bladder,[4]; 56 min,+++
same,Relative distribution of complex: Vascular,[4]; 56 min,-
same,Relative distribution of complex: Kidneys,[4]; 70 min,+
same,Relative distribution of complex: Urinary Bladder,[4]; 70 min,+++
same,Relative distribution of complex: Vascular,[4]; 70 min,-

# From patent US4301140A, “Radiopharmaceutical method for monitoring kidneys” (G. D. Searle & Co., priority 1979, dated 1981)
